Values quoted from earlier work, collected in PMC9849693.

Target: RyR1 RyR1 peptide (Homo sapiens) (UniProt P21817)
Experiment: ITC

In the case of Calmodulin (from UniProt P0DP23), the Kd is listed as 46 nM.
